Measured values: patent US6603023B2 (priority 1996, dated 2003)
Where a name gives a salt, the structure may show the parent alone. Read-outs that look alike come from different tables or passages of the source.

How the values were obtained:
CCRF-CEM/Taxol® = format: cell-based, human; settings: Table 1A; CCRF-CEM/Taxol vs CCRF-CEM
Method: (§1) The drug-resistant cell lines were continuously cultured in the presence of the selecting agent, AD, DX, VBL or VM to maintain the drug resistant phenotypes. […] All cells were cultured in RPMI 1640-10% FBS at 37° C. 5% CO2 (see below).
(§2) The cells were cultured at an initial density of 5×10^4 cells/mL. They were maintained in a 5% CO2-humidified atmosphere at 37° C. in RPMI-1640 medium (GIBCO-BRL, Gaithersburg, Md.) containing penicillin (100 U/mL), streptomycin ([…]) (GIBCO-BRL) and 10% heat inactivate fetal bovine serum. Culture for cell suspension (such as for CCRF-CEM, P388 and sublines), were performed by the XTT-microculture tetrazonium method (Scudiero, D. A. et al., Cancer Res. 1988, 48, 4827-4833) in duplicate in 96-well microtiter plates.
(§3) 2′,3′-Bis(methoxy-4-nitro-5-sufophenyl)-5-[(phenylamino)carbonyl]2H-tetrazolium hyudroxide (XTT) was prepared at 1 mg/mL in prewarmed (37° C.) medium without serum. Phenazine methosulfate (PMS) and fresh XTT were mixed together to obtain 0.025 mM PMS-XTT solution (25 μL of the stock 5 mM PMS was added per 5 mL of 1 mg/mL XTT). Following a 72 h incubation, 50 μL of the assay aliquots were added to each well of the cell culture. After incubation at 37° C. for 4 h, absorbance at 450 nm and 630 nm was measured with a microplate reader (EL340, Bio-Tek Instruments, Inc., Winooski, Vt.).

CCRF-CEM/VBL100 = format: cell-based, human; settings: Table 1A; CCRF-CEM/VBL100 vs CCRF-CEM
Method: as §1, §2, §3

CCRF-CEM/VM1 = format: cell-based, human; settings: Table 1A; CCRF-CEM/VM1 vs CCRF-CEM
Method: as §1, §2, §3

DC-3F/ADX = format: cell-based, hamster
Method: The DC-3F hamster lung fibroblast cell line and its actinomycin D-selected sublines (DC-3F/ADII and DC-3F/ADX) were obtained from the Memorial Sloan-Kettering Cancer Center (MSKCC).
as §1
The cytotoxicity of the drug toward the monolayer cell cultures (such as DC-3F, MCF-7, SK-N-As and sublines) was determined in 96-well microtiter plates by the SRB method as described by Skehan and co-workers (Skehan, P., et al., J. Natl. Cancer Inst. 1990, 82, 1107-1112) for measuring the cellular protein content. […] Unbound dye was removed by acetic acid washes, and the protein-bound dye was extracted with an unbuffered Tris base (tris(hydroxy-methyl)aminomethane) for determination of absorbance at 570 nm in a 96-well microtiter plate reader. […] Data were analyzed with the median-effect plot (Chou, T.-C. & Talalay, P. T. (1984) Adv. Enzyme Regul. 22, 27-55) using a previously described computer program (Chou, J., & Chou T.-C. 1987, Dose-effect analysis with microcomputers: Quantitation of ED50, synergism, antagonism, low-dose risk, reception-ligand binding and enzyme kinetics, IBM-PC software and manual, Biosoft, Cambridge, U.K.). […]

P388/Adr = format: cell-based, murine
Method: as §1, §2, §3

SK-N-FI = format: cell-based, human
Method: as §1
The cytotoxicity of the drug toward the monolayer cell cultures (such as DC-3F, MCF-7, SK-N-As and sublines) was determined in 96-well microtiter plates by the SRB method as described by Skehan and co-workers (Skehan, P., et al., J. Natl. Cancer Inst. 1990, 82, 1107-1112) for measuring the cellular protein content. Cultures were fixed with trichloroacetic acid and then stained for 30 min with 0.4% suforhodamine B dissolved in 1% acetic acid. Unbound dye was removed by acetic acid washes, and the protein-bound dye was extracted with an unbuffered Tris base (tris(hydroxy-methyl)aminomethane) for determination of absorbance at 570 nm in a 96-well microtiter plate reader. The experiments were carried out in duplicate. […] Data were analyzed with the median-effect plot (Chou, T.-C. & Talalay, P. T. (1984) Adv. Enzyme Regul. 22, 27-55) using a previously described computer program (Chou, J., & Chou T.-C. 1987, Dose-effect analysis with microcomputers: Quantitation of ED50, synergism, antagonism, low-dose risk, reception-ligand binding and enzyme kinetics, IBM-PC software and manual, Biosoft, Cambridge, U.K.).

MCF-7/Adr = format: cell-based, human
Method: Cultures were fixed with trichloroacetic acid and then stained for 30 min with 0.4% suforhodamine B dissolved in 1% acetic acid. Unbound dye was removed by acetic acid washes, and the protein-bound dye was extracted with an unbuffered Tris base (tris(hydroxy-methyl)aminomethane) for determination of absorbance at 570 nm in a 96-well microtiter plate reader. The experiments were carried out in duplicate. Each run entailed six to seven concentrations of the tested drugs.

[1] = tested on: MDR human mammary adenocarcinoma MCF-7/Adr xenograft
Method: (§4) DMSO was used as a vehicle for epothilones. Each mouse received ≦40 μL DMSO in all experiments.
(§5) Athymic nude mice (nu/nu) were used for MX-1 and MCF-7/Adr human mammary carcinoma xenografts. Mice were obtained from Taconic Laboratory Animals and Service (Germantown, N.Y.: outbred, Swiss background).

[2] = tested on: human mammary carcinoma MX-1 xenograft; settings: i.p., comparison with Adriamycin
Method: as §4, §5

[3] = tested on: PC-3 Human Prostate Carcinoma; experiment: PC-3 xenograft; format: in vivo, nude mice; settings: i.v./i.p. (order wraps over rows r11-r12)

COc1cccc2c1C(=O)c1c(O)c3c(c(O)c1C2=O)C[C@@](O)(C(=O)CO)C[C@@H]3O[C@H]1C[C@H](N)[C@H](O)[C@H](C)O1 [Adriamycin, doxorubicin or adriamycin HCl]
(C)/(A) IC50 ratio (CCRF-CEM/Taxol®): 2.3
(B)/(A) IC50 ratio (CCRF-CEM/VBL100): 48
(D)/(A) IC50 ratio (CCRF-CEM/VM1): 3.6
fold resistance vs parent DC-3F (DC-3F/ADX; DC-3F/ADX cells): 124 fold
folds of resistance (IC50 ratio vs parent cell line) (DC-3F/ADX; Table 1C, DC-3F/ADX vs DC-3F): (124x)
fold resistance vs parent P388 (P388/Adr; P388/Adr cells): 482 fold
folds of resistance (IC50 ratio vs parent cell line) (P388/Adr; Table 1C, P388/Adr vs P388/O): (482x)
fold resistance vs parent SK-N-As (SK-N-FI; SK-N-F1 cells): 18 fold
folds of resistance (IC50 ratio vs parent cell line) (SK-N-FI; Table 1C, SK-N-FI vs SK-N-As): (18.4x)
fold resistance vs parent MCF-7 (MCF-7/Adr; MCF-7/Adr cells): 3.8 fold
folds of resistance (IC50 ratio vs parent cell line) (MCF-7/Adr; Table 1C, MCF-7/Adr vs MCF-7): (3.8x)
Therapeutic effect Rank Order ([1]; i.p. (order wraps over rows r13-r14)): Adriamycin > Taxol ®
Therapeutic effect Rank Order ([1]; i.v. infusion (order wraps over rows r16-r17)): Taxol ® > VBL, Adriamycin
Therapeutic effect Rank Order [2]: dEpoB > Adriamycin > Taxol ®
Therapeutic effect Rank Order [3]: Adriamycin
